Tested on: MLS ovarian cancer cells
Assay: MLS ovarian tumor xenograft in nude mice
Type: in vivo
Settings: MLS tumors, antibodies injected into the peritoneum, six weeks, data not shown
Method: FIGS. 7A-7C illustrate that AR30, an anti-AREG monoclonal antibody, inhibits tumorigenic growth of human ovarian cancer cells in mice. FIG. 7A, female nude mice (6 weeks old) were inoculated subcutaneously with MLS ovarian cancer cells (2×10^6 per animal). Once tumors became palpable, mice were randomized into two groups. Eleven mice were injected intraperitoneally with an anti-AREG mAb (AR30; 200 μg/mouse; twice a week, on days: 8, 11, 14, 17, and 21). The control group also included 11 mice. Shown are means±S.D. values; FIG. 7B, female nude mice (6 weeks old) were inoculated subcutaneously with MLS ovarian cancer cells (2×10^6 per animal). Once tumors became palpable, mice were randomized into four groups. One group (8 mice) was injected intraperitoneally with the AR30 mAb (100 μg/mouse twice a week, on days: 8, 14, 17, 21, 24 and 28). Another group (8 mice) was treated with cisplatin (5 mg/kg; on days 8 and 21). The fourth group was treated with a combination of mAb AR30 and cisplatin. The control group included 12 mice; and FIG. 7C, the indicated MLS tumors were excised, and their average weights determined. Representative tumors were photographed.
All animal procedures were approved by the Weizmann Institute of Science's review board. […] Tumor volumes were monitored twice a week, and body weights were measured once a week.

cetuximab [reference compound]
tumor growth: partly inhibited tumor growth

From patent publication US10640556B2, “Anti amphiregulin antibodies, compositions comprising same and uses thereof” (Yeda Research and Development Co. Ltd., priority 2015, dated 2020)
